SMILES strings stand for the structures. Like-named read-outs stand apart in the source and are kept apart here.

The chains behind the UniProt entries cited, without tags or fusion partners. Residues count along the entry.
UniProt P02768, 25-609: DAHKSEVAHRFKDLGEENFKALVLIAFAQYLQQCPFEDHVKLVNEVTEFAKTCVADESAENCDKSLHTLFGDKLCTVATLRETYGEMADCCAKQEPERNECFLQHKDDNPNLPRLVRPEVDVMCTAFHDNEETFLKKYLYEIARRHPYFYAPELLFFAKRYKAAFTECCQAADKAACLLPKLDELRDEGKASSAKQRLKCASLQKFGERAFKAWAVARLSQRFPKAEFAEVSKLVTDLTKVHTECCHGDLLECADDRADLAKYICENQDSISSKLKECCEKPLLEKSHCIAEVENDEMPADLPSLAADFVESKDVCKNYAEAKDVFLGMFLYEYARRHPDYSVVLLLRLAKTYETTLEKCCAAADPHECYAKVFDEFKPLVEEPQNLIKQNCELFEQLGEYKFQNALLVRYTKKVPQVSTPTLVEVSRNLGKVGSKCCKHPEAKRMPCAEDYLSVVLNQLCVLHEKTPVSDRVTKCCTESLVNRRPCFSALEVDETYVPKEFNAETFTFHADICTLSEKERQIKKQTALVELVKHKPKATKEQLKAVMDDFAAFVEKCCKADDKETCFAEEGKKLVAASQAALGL

As a reminder, the chromatographic logD is lipophilicity estimated from chromatographic retention. High values mean higher lipophilicity, low ones lower lipophilicity.

Data set [1] addresses T1, human serum albumin (HSA) (Homo sapiens, UniProt P02768). Nature of the data set: in vitro. As to conditions: immobilized hsa column, pH 7.4.
The conditions of data set [2]: cited from earlier work.
The conditions of data set [3]: ref DrugBank [7], cited from earlier work.
The nature of data set [4]: Milk-to-plasma (M/P) drug concentration ratio obtained in vivo, from literature. Particulars: Table S1, scale of drug penetration into milk 1-4.
Data set [5] has as its target T1, human serum albumin (HSA). As to conditions: immobilized hsa column, pH 7.4.
[6] abbreviates: Table S1, milk/plasma drug concentration ratio, in vivo.

In data set [1], `CC(C)NCC(O)COc1ccc(COCCOC(C)C)cc1` (centres unmarked) [bisoprolol] gave a chromatographic logD of 0.03.

Take `CC[C@H]1OC(=O)[C@H](C)[C@@H](O[C@H]2C[C@@](C)(OC)[C@@H](O)[C@H](C)O2)[C@H](C)[C@@H](O[C@@H]2O[C@H](C)C[C@H](N(C)C)[C@H]2O)[C@](C)(O)C[C@@H](C)/C(=N\OCOCCOC)[C@H](C)[C@@H](O)[C@]1(C)O` [roxitromicin]: the M/P in data set [2] (setting [6]) is recorded as 0.04. In addition, the “CNS+/-” value in data set [3] (Table S1, coded 1/0) is reported as 0. Moreover, the M/P code in data set [4] is 1 (Code 1 corresponds to drugs with an M/P value <0.40—completely safe).

For `COc1ccc(CCN2CCC(Nc3nc4ccccc4n3Cc3ccc(F)cc3)CC2)cc1` [astemizol], in data set [2] (setting [6]), the M/P is given as 4.4. Further, the “CNS+/-” value in data set [3] (Table S1, coded 1/0) is listed as 1. Moreover, the M/P code in data set [4] is listed as 4 (4 is M/P >1.20—dangerous).

`CN(C)CCc1c[nH]c2ccc(C[C@H]3COC(=O)N3)cc12` [zolmitriptane]: the “CNS+/-” value in data set [3] (Table S1, coded 1/0) was 1.

Turning to `NS(=O)(=O)c1cc(C2(O)NC(=O)c3ccccc32)ccc1Cl` (centres unmarked) [chlortalidone], in data set [1], the chromatographic logD was -0.07.

On to `CC(C)(C)NC[C@H](O)COc1nsnc1N1CCOCC1` [timolol], for which, in data set [5], the “log kHSA” value is reported as -0.88. In addition, in data set [2] (Table S6, external group (n = 38)), the M/P is 0.80. Besides, the “CNS+/-” value in data set [3] (Table S6, external group, coded 1/0) is 0.

Take `Cc1cc2c(s1)Nc1ccccc1N=C2N1CCN(C)CC1` [olanzapine]: the M/P code in data set [4] is listed as 1 (Code 1 corresponds to drugs with an M/P value <0.40—completely safe).

Turning to `C=CCN1C[C@H](C(=O)N(CCCN(C)C)C(=O)NCC)C[C@@H]2c3cccc4[nH]cc(c34)C[C@H]21` [carbegoline], the “CNS+/-” value in data set [3] (Table S1, coded 1/0) is recorded as 1.

(Values after paper PMC9182007, “Statistical Methods in the Study of Protein Binding and Its Relationship to Drug Bioavailability in Breast Milk” (Molecules, 2022).)
